Drawing on US7759499B2, “Compounds as inhibitors of hepatitis C virus NS3 serine protease” (Schering Corporation, priority 2004, dated 2010), this text covers Ki for 41 compounds.

Protein sequences, listed by entry. Tags and fused reporters are not part of them. Residues count along the entry.
UniProt P27958, 1027-1657: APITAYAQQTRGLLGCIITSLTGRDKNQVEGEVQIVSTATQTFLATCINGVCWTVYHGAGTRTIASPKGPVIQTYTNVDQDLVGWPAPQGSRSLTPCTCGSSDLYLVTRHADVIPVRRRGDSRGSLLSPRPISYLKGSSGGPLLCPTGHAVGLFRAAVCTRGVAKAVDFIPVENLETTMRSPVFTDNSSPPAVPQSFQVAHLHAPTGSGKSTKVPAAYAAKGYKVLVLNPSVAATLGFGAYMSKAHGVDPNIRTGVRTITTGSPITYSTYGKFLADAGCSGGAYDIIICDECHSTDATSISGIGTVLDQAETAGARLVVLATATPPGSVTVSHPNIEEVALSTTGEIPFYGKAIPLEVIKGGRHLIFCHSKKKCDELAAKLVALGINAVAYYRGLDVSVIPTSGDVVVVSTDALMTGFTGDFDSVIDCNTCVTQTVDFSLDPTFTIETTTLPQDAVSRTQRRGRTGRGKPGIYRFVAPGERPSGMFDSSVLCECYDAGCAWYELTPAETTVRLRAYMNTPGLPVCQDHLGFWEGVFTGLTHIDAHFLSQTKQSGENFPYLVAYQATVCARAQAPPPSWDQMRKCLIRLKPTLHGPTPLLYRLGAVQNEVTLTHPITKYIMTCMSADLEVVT
UniProt P27958, 1658-1711: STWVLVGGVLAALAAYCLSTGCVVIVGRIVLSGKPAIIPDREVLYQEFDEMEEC

In the first experiment the target is Recombinant heterodimeric HCV NS3/NS4A protease (strain 1a) (Hepatitis C virus genotype 1a, UniProt P27958). Briefly: Spectrophotometric assay for HCV protease inhibitory activity. Type of experiment: biochemical. Conditions: Table 1, range.
Regarding `C=CCNC(=O)C(=O)C(CCC)NC(=O)[C@@H]1[C@@H]2[C@H](CN1C(=O)[C@@H](NC(=O)N[C@H](CN(C)S(=O)(=O)NCCCCl)C(C)(C)C)C(C)(C)C)C2(C)C` (some centres unmarked) [Compound 10023], the Ki was at most 75 nM.
For the compound `CCNC(=O)C(=O)C(CC1CC1)NC(=O)[C@@H]1[C@@H]2[C@H](CN1C(=O)[C@@H](NC(=O)N[C@H](CN(C)S(=O)(=O)N1CCCCC1)C(C)(C)C)C(C)(C)C)C2(C)C` (some centres unmarked) [Compound 10062], the Ki is at most 75 nM.
As for `C=CCNC(=O)C(=O)C(CC1CC1)NC(=O)[C@@H]1[C@@H]2[C@H](CN1C(=O)[C@@H](NC(=O)N[C@H](CN(C)S(=O)(=O)N(C)C)C1CCCCC1)C(C)(C)C)C2(C)C` (some centres unmarked) [Compound 10067], the inhibitory constant (Ki) was at most 75 nM.
In the case of `CN(C[C@@H](NC(=O)N[C@H](C(=O)N1C[C@H]2[C@@H]([C@H]1C(=O)NC(CCC(F)(F)F)C(=O)C(N)=O)C2(C)C)C(C)(C)C)C(C)(C)C)S(=O)(=O)N1CCCCC1` (some centres unmarked) [Compound 10070], the Ki is at most 75 nM.
`C=CCNC(=O)C(=O)C(CC1CC1)NC(=O)[C@@H]1[C@@H]2[C@H](CN1C(=O)[C@@H](NC(=O)N[C@H](CN(C)S(=O)(=O)N(C)C)C(C)C)C(C)(C)C)C2(C)C` (some centres unmarked) [Compound 10066]: the Ki was at most 75 nM.

The experiment is the same for the next values; noted with them: Table 2, range.
`C=CCNC(=O)C(=O)C(CCC(F)(F)F)NC(=O)[C@@H]1[C@@H]2[C@H](CN1C(=O)[C@@H](NC(=O)N[C@H](CN(C)S(C)(=O)=O)C(C)(C)C)C1CCCCC1)C2(C)C` (some centres unmarked) [Compound 11058]: the Ki is at most 75 nM.
With `C=CCNC(=O)C(=O)C(CC1CC1)NC(=O)[C@@H]1[C@@H]2[C@H](CN1C(=O)[C@@H](NC(=O)N[C@H](CN(C)S(=O)(=O)c1ccccc1)C(C)C)C(C)(C)C)C2(C)C` (some centres unmarked) [Compound 11018], the Ki is at most 75 nM.
For the compound `CCS(=O)(=O)N(C)C[C@@H](NC(=O)N[C@H](C(=O)N1C[C@H]2[C@@H]([C@H]1C(=O)NC(CC1CC1)C(=O)C(N)=O)C2(C)C)C1(C)CCCCC1)C(C)(C)C` (some centres unmarked) [Compound 11317], the Ki is at most 75 nM.
Same read-out and setting: under `C=CCNC(=O)C(=O)C(CC1CC1)NC(=O)[C@@H]1[C@@H]2[C@H](CN1C(=O)[C@@H](NC(=O)N[C@H](CN(C)S(=O)(=O)c1ccccc1)C(C)(C)C)C(C)(C)C)C2(C)C` (some centres unmarked) [Compound 11041] stands at most 75 nM.
For the compound `C=CCNC(=O)C(=O)C(CCCC)NC(=O)[C@@H]1[C@@H]2[C@H](CN1C(=O)[C@@H](NC(=O)N[C@H](CN(C)S(=O)(=O)c1ccc(OC)cc1OC)C(C)(C)C)C(C)(C)C)C2(C)C` (some centres unmarked) [Compound 11325], the inhibitory constant (Ki) was at most 75 nM.
Consider `CN(C[C@@H](NC(=O)N[C@H](C(=O)N1C[C@H]2[C@@H]([C@H]1C(=O)NC(CC1CC1)C(=O)C(N)=O)C2(C)C)C1(C)CCCCC1)C(C)(C)C)S(C)(=O)=O` (some centres unmarked) [Compound 11251], for which the Ki is at most 75 nM.
Turning to `C=CCNC(=O)C(=O)C(CC=C)NC(=O)[C@@H]1[C@@H]2[C@H](CN1C(=O)[C@@H](NC(=O)NC1(CN(C)S(C)(=O)=O)CCCCC1)C1CCCCC1)C2(C)C` (some centres unmarked) [Compound 11068], the Ki is at most 75 nM.
As for `C#CCCC(NC(=O)[C@@H]1[C@@H]2[C@H](CN1C(=O)[C@@H](NC(=O)N[C@H](CN(C)S(=O)(=O)c1cccs1)C(C)(C)C)C1(C)CCCCC1)C2(C)C)C(=O)C(=O)NCC=C` (some centres unmarked) [Compound 11298], the Ki was at most 75 nM.
On to `CN(C[C@@H](NC(=O)N[C@H](C(=O)N1C[C@H](Cl)C[C@H]1C(=O)NC(CC1CC1)C(=O)C(N)=O)C1CCCCC1)C(C)(C)C)S(C)(=O)=O` (some centres unmarked) [Compound 11166], for which the Ki was at most 75 nM.
Take `C=CCNC(=O)C(=O)C(CCC)NC(=O)[C@@H]1[C@@H]2[C@H](CN1C(=O)[C@@H](NC(=O)N[C@H](CN(C)S(=O)(=O)c1ccccc1)C(C)(C)C)C1CCCCC1)C2(C)C` (some centres unmarked) [Compound 11077]: the Ki is at most 75 nM.
As to `C=CCNC(=O)C(=O)C(CCC(F)(F)F)NC(=O)[C@@H]1[C@@H]2[C@H](CN1C(=O)[C@@H](NC(=O)N[C@H](CN(C)S(C)(=O)=O)C(C)C)C(C)(C)C)C2(C)C` (some centres unmarked) [Compound 11030], the Ki was at most 75 nM.
For the compound `C=CCNC(=O)C(=O)C(CC1CC1)NC(=O)[C@@H]1[C@@H]2[C@H](CN1C(=O)[C@@H](NC(=O)N[C@H](CN(C)S(C)(=O)=O)C(C)C)C(C)(C)C)C2(C)C` (some centres unmarked) [Compound 11021], the Ki is at most 75 nM.
On to `C=CCNC(=O)C(=O)C(CCCC)NC(=O)[C@@H]1[C@@H]2[C@H](CN1C(=O)[C@@H](NC(=O)N[C@H](CN(C)S(=O)(=O)c1cccs1)C(C)(C)C)C1CCCC1)C2(C)C` (some centres unmarked) [Compound 11228], for which the Ki was at most 75 nM.
Same read-out and setting: the value for `C=CCNC(=O)C(=O)C(CC1CCC1)NC(=O)[C@@H]1[C@@H]2[C@H](CN1C(=O)[C@@H](NC(=O)N[C@H](CN(C(C)C)S(=O)(=O)c1cccs1)C(C)(C)C)C(C)(C)C)C2(C)C` (some centres unmarked) [Compound 11238] was at most 75 nM; that for `C=CCNC(=O)C(=O)C(CCC(F)(F)F)NC(=O)[C@@H]1[C@@H]2[C@H](CN1C(=O)[C@@H](NC(=O)N[C@H](CN(C)S(C)(=O)=O)C(C)(C)C)C1Cc3ccccc3C1)C2(C)C` (some centres unmarked) [Compound 11387] was at most 75 nM.
For the compound `C#CCCC(NC(=O)[C@@H]1[C@@H]2[C@H](CN1C(=O)[C@@H](NC(=O)N[C@H](CN(C)S(=O)(=O)c1ccccn1)C(C)(C)C)C1(C)CCCCC1)C2(C)C)C(=O)C(=O)NCC=C` (some centres unmarked) [Compound 11372], the Ki was at most 75 nM.
Consider `CCCC(NC(=O)[C@@H]1[C@@H]2[C@H](CN1C(=O)[C@@H](NC(=O)N[C@H](CN(C)S(=O)(=O)c1cccs1)[C@@H](C)CC)C(C)(C)C)C2(C)C)C(=O)C(=O)NCC` (some centres unmarked) [Compound 11087], for which the inhibition constant Ki is 75 to 250 nM.
Same read-out and setting: under `CCCC(NC(=O)[C@@H]1[C@@H]2[C@H](CN1C(=O)[C@@H](NC(=O)N[C@H](CN(C)S(=O)(=O)c1cccs1)CC(C)(C)C)C(C)(C)C)C2(C)C)C(=O)C(N)=O` (some centres unmarked) [Compound 11249] stands at most 75 nM; under `CN(C[C@@H](NC(=O)N[C@H](C(=O)N1C[C@H]2[C@@H]([C@H]1C(=O)NC(CC1CCC1)C(=O)C(N)=O)C2(C)C)C1CCCCC1)C(C)(C)C)S(C)(=O)=O` (some centres unmarked) [Compound 11048], at most 75 nM; under `C=CCNC(=O)C(=O)C(CCC)NC(=O)[C@@H]1[C@@H]2[C@H](CN1C(=O)[C@@H](NC(=O)N[C@H](CN(C)S(=O)(=O)c1ccccc1)[C@@H](C)CC)C(C)(C)C)C2(C)C` (some centres unmarked) [Compound 11063], at most 75 nM.
For `CC(C)[C@@H](CN(C)S(=O)(=O)C1CC1)NC(=O)N[C@H](C(=O)N1C[C@H]2[C@@H]([C@H]1C(=O)NC(CC1CCC1)C(=O)C(N)=O)C2(C)C)C(C)(C)C` (some centres unmarked) [Compound 11038], the Ki is at most 75 nM.
In the case of `C=CCNC(=O)C(=O)C(CC1CC1)NC(=O)[C@@H]1[C@@H]2[C@H](CN1C(=O)[C@@H](NC(=O)N[C@H](CN(C)S(=O)(=O)C(C)(C)C)C(C)(C)C)C1Cc3ccccc3C1)C2(C)C` (some centres unmarked) [Compound 11273], the Ki was in the range of 75 to 250 nM.
With `CC[C@H](C)[C@@H](CN(C)S(=O)(=O)c1ccccc1)NC(=O)N[C@H](C(=O)N1C[C@H]2[C@@H]([C@H]1C(=O)NC(CC1CCC1)C(=O)C(N)=O)C2(C)C)C(C)(C)C` (some centres unmarked) [Compound 11071], the Ki was at most 75 nM.
Turning to `CC[C@H](C)[C@@H](CN(C)S(=O)(=O)c1cccs1)NC(=O)N[C@H](C(=O)N1C[C@H]2[C@@H]([C@H]1C(=O)NC(CC1CC1)C(=O)C(N)=O)C2(C)C)C(C)(C)C` (some centres unmarked) [Compound 11094], the Ki was at most 75 nM.
For `CCCCC(NC(=O)[C@@H]1[C@@H]2[C@H](CN1C(=O)[C@@H](NC(=O)N[C@H](CN(C)S(=O)(=O)c1cccs1)C(C)(C)C)C1Cc3ccccc3C1)C2(C)C)C(=O)C(=O)NCC` (some centres unmarked) [Compound 11291], the Ki was at most 75 nM.

Staying with this experiment, now noted: Table 3, range.
Regarding `C=CCNC(=O)C(=O)C(CC1CC1)NC(=O)[C@@H]1[C@@H]2[C@H](CN1C(=O)[C@@H](NC(=O)N[C@H](CNS(C)(=O)=O)C(C)C)C(C)(C)C)C2(C)C` (some centres unmarked) [Compound 12019], the inhibitory constant (Ki) was at most 75 nM.

The same experiment, now with this note: Table 4, range.
For the compound `C=CCNC(=O)C(=O)C(CCC)NC(=O)[C@@H]1[C@@H]2[C@H](CN1C(=O)[C@@H](NC(=O)N[C@H](CNC(=O)c1cncnc1)C(C)(C)C)C1CCCCC1)C2(C)C` (some centres unmarked) [Compound 13033], the Ki is at most 75 nM.

Staying with this experiment, now noted: Table 5, range.
Consider `C=CCNC(=O)C(=O)C(CCC)NC(=O)[C@@H]1[C@@H]2[C@H](CN1C(=O)[C@@H](NC(=O)N[C@H](CN(C)C(=O)OC(C)(C)C)C(C)(C)C)C(C)(C)C)C2(C)C` (some centres unmarked) [Compound 14039], for which the Ki is over 250 nM.
On to `C=CCNC(=O)C(=O)C(CC1CC1)NC(=O)[C@@H]1[C@@H]2[C@H](CN1C(=O)[C@@H](NC(=O)N[C@H](CN(C)C(=O)OC(C)(C)C)CC(C)(C)C)C(C)(C)C)C2(C)C` (some centres unmarked) [Compound 14043], for which the inhibition constant Ki was over 250 nM.
On the same count and under the same terms, the value for `CC(C)(C)OC(=O)N1CCCC(NC(=O)N[C@H](C(=O)N2C[C@H]3[C@@H]([C@H]2C(=O)NC(CC2CCC2)C(=O)C(N)=O)C3(C)C)C(C)(C)C)C1` (some centres unmarked) [Compound 14026] was over 250 nM; that for `CC(C)(C)OC(=O)N1CC[C@H](NC(=O)N[C@H](C(=O)N2C[C@@H]3OC(C)(C)C[C@@H]3[C@H]2C(=O)NC(CC2CC2)C(=O)C(N)=O)C2CCCCC2)C1` (some centres unmarked) [Compound 14045] was over 250 nM; that for `C=CCNC(=O)C(=O)C(CCC)NC(=O)[C@@H]1[C@@H]2[C@H](CN1C(=O)[C@@H](NC(=O)N[C@H](CN(C)C(=O)OC(C)(C)C)C(C)(C)C)C1CCCCC1)C2(C)C` (some centres unmarked) [Compound 14040] was over 250 nM.

The experiment is the same for the next values; noted with them: Table 5A, range.
With `C=CCNC(=O)C(=O)C(CC1CCC1)NC(=O)[C@@H]1[C@@H]2[C@H](CN1C(=O)[C@@H](NC(=O)N[C@H](CN(C)S(=O)(=O)c1ccccn1)C(C)(C)C)C1Cc3ccccc3C1)C2(C)C` (some centres unmarked) [Compound 11392], the inhibition constant Ki was at most 75 nM.
On to `C=CCNC(=O)C(=O)C(CC1CC1)NC(=O)[C@@H]1[C@@H]2[C@H](CN1C(=O)[C@@H](NC(=O)N[C@H](CN(C)S(=O)(=O)c1cccnc1)C(C)(C)C)C1(C)CCCCC1)C2(C)C` (some centres unmarked) [Compound 11409], for which the Ki is at most 75 nM.
On the same count and under the same terms, under `CCCC(NC(=O)[C@@H]1[C@@H]2[C@H](CN1C(=O)[C@@H](NC(=O)N[C@H](CN(CC)S(=O)(=O)CC)C(C)(C)C)C1Cc3ccccc3C1)C2(C)C)C(=O)C(=O)NC1CC1` (some centres unmarked) [Compound 11416] stands at most 75 nM; under `CCCCC(NC(=O)[C@@H]1[C@@H]2[C@H](CN1C(=O)[C@@H](NC(=O)N[C@H](CN(C)S(=O)(=O)CC)C(C)(C)C)C1Cc3ccccc3C1)C2(C)C)C(=O)C(=O)NCCC` (some centres unmarked) [Compound 11398], at most 75 nM.

For orientation: Ki means a dissociation constant, usually derived from enzyme kinetics or from competition with a known ligand.
